The source of these data is US20240216311A1, “FULLY-DILUTABLE, SELF-MICROEMULSIFYING DELIVERY SYSTEMS (SMEDDS) FOR POORLY WATER-SOLUBLE POLAR SOLUTES” (THE GOVERNING COUNCIL OF THE UNIVERSITY OF TORONTO, priority 2020, published 2024).

For series [1] the following is noted: adapted from [21]; cited from earlier work.
For series [2] the following is noted: from Drugbank; nonylphenol from ChemSpider; cited from earlier work.
Series [3] is described as follows: Characteristic curvature (Cc) by salinity phase scans with reference surfactant C9E5. The conditions noted are these: polar oil in mixtures with C9E5; heptane (cyclohexane for CBD) as oil. Type of series: physicochemical. Here is the method: The characteristic curvature (Cc) of the candidate hydrophilic linker with extremely negative Cc (Cc<−5) was determined following the mixed reference and test surfactant method used by Zarate et al.. […] The salinity phase scans were conducted by vortex-mixing 2 mL of the aqueous surfactant solution, containing a set value of sodium chloride (g NaCl/100 mL of aqueous surfactant solution or % w/v NaCl) with 2 mL of n-heptane at room temperature in 2-dram vials sealed with a silicone-lined cap. […] The difference between the initial volume added to the vial (2 mL), and the excess phase volume was considered the volume solubilized. The ratio between the volume solubilized (in mL) and the total mass of surfactant mixture (0.2 g) was reported as the solubilization parameter (SP) for the given phase at the set salinity.

On to Disodium stearoyl capryl glutamate, for which the L in series [1] was 34 Å.
Consider Nonylphenol, for which the Aqueous solubility in series [2] is recorded as 0.0007 wt %. Also, in series [3], the “dS*/dx” value was −73 % w/v NaCl.
Regarding Sucrose distearate, in series [1], the L is given as 34 Å and the vs/as was 12.0 Å.
In the case of Sucrose palmitate, in series [1], the L is 23 Å and the vs/as is 17.8 Å.
